## Binding of CDR-mutated scFvs to a peptide of the spike HR2 region

Reference: Li et al. 2023, doi:10.1038/s41467-023-39022-2. File: FLAb, binding data.

All variants were tested on one target, the spike HR2 peptide PDVDLGDISGINAS (SARS-CoV-2).

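Phage display of a naive human antibody library on the peptide gave the parent. These sequences belong to a second round, designed from the earlier measurements on random variants of the parent. Several design methods are mixed in this list. The assay is AlphaSeq: two haploid yeast populations carry antibody and antigen on their surface. Binding brings cells together so that they mate, and sequencing counts the barcode pairs among the diploids. Scores were corrected for input abundance and mapped to Kd with protein pairs of known affinity run in the same pool. Mating was done six times.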

Parent: Ab-14, a human scFv built as VH, three GGGGS repeats, VL. Only the CDRs of the light chain vary.
VH: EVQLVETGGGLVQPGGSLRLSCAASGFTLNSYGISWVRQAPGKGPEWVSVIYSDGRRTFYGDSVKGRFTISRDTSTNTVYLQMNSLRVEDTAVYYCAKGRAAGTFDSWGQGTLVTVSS
VL: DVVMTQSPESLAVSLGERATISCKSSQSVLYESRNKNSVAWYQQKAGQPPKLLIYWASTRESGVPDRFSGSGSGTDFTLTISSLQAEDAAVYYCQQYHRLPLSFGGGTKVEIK

Changes read parent residue, position, new residue, counted from the first residue of the VL shown. Variants here have at most six changes. The Kd shown is the geometric mean over detected replicates; a lower Kd is a better binder. An entry "nd" has no value in the source: the pair was not observed among the diploids in any replicate. This suggests poor binding but is not conclusive.

changes	apparent Kd	seen in
K36H W56N	1.3 nM	6/6
S25L Q27W V29Q W56N	550 pM	6/6
W56N L102F	1.1 nM	6/6
S25L W56D E61Y	640 pM	6/6
S25A E32T W56G S62D	2.1 nM	6/6
S25L L30E W56E E61L	9.0 nM	6/6
S25V W56E S62D	13 nM	6/6
K24F W56N	8.6 nM	6/6
S25L S26E W56Q	3.9 nM	6/6
S25L N35E W56N T59Q	540 pM	6/6
L30A Y31D V39I S58N T59E R99H	14 nM	6/6
K24H S25L V29E W56N T59K	1.4 nM	6/6
S26M V29A K36S W56D	680 pM	6/6
S25I S26Q W56N E61C	800 pM	6/6
S28A S62L H98M R99G	520 nM	2/6
S25V Q27I V29Y Y31E W56E	850 pM	6/6
S26G Y31N K36H W56A	2.9 nM	6/6
S25L S26R V29T L30K K36Q W56K	19 nM	6/6
W56G E61V Q96G H98V	5.8 nM	6/6
S25V S26P L30V S33G W56H S62D	760 pM	6/6
S25L S26E L30G W56N T59Q	3.3 nM	6/6
Y31Q N37K W56S L100M	5.8 nM	6/6
S25V V29M Y31I K36S W56N S62H	14 nM	6/6
K24H Q27P V29D W56N	1.3 nM	6/6
Q27L V29Y Y31E W56E	1.1 nM	6/6
S25L S26Y V29H N35M W56N	1.2 nM	6/6
S25L S26Q V29M W56Q T59Q S62V	630 pM	6/6
Q27P R34F W56N E61M	7.3 nM	6/6
S25L S26Q N35M W56E	940 pM	6/6
S26D S28G V29D W56G	580 pM	6/6
Y31G H98I	94 nM	5/6
V29M E61L Q95D	nd	0/6
S25L R34G N35T W56N T59S	1.2 nM	6/6
S38Q	810 nM	3/6
Q27I V29C R34M W56N A57G	7.9 nM	1/6
K24R S25I Y31M W56N R60H	770 pM	6/6
S28A W56G S103L	5.5 nM	6/6
S25M Y31M W56D S62E	550 pM	6/6
S25V L30G W56D	700 pM	6/6
S38P W56S R99Y	220 nM	5/6
S25N S26Y W56Q L100K	4.3 nM	6/6
S26R V29T R34S K36T S62E	22 nM	6/6
S26P Y31M P101L	nd	0/6
V29F K36V W56G	940 pM	6/6
E61I	nd	0/6
S25F Q27I N35G Q96I R99I L102H	nd	0/6
S25L S28Q L30E W56N	2.5 nM	6/6
S33E S62Q R99E L102V	nd	0/6
K24S S25L S26M W56H T59V S62D	1.0 nM	6/6
S25D W56E	1.4 nM	6/6
S26Q K36G S38N W56H S62D	450 pM	6/6
S25F V29D W56D S58N	870 pM	6/6
S25V V29I R34G N35T W56N T59S	2.7 nM	6/6
S25M V29T K36D S38N R60L Q96T	nd	0/6
S25L S26K V29E W56N	1.4 nM	6/6
S25N L30D Y31F W56D	530 pM	6/6
S25L E32M W56E	420 pM	6/6
S26A V29W W56H S62Q	6.3 nM	6/6
S26L V29W W56N S62Q	270 nM	6/6
Y31I E61S	95 nM	6/6
K36R W56E	2.8 nM	6/6
S25H L102P	nd	0/6
K24C L30P K36L W56G Y97C R99D	nd	0/6
Q96M R99D	nd	0/6
S25L E32Q W56N	580 pM	6/6
S25L V29W K36S W56N S62V	1.9 nM	6/6
S33D N35E T59E L100P	nd	0/6
S25L S26Y L30E W56N	690 pM	6/6
L30D Y31F W56D	460 pM	6/6
W56G R99V	7.0 nM	6/6

The parent sequence was in this pool as ten entries: three were never detected, three once, and four in most replicates, with averages from 2.2 nM to 240 nM. The range of this assay differs from that of the first round, and the authors advise against merging the two. In the paper, a design with two or fewer of six values counts as a poor binder. Empty control strains, which show no peptide, gave a signal in 4% of pairings with all light chain designs; the median was 430 nM and 95% of these signals were weaker than 38 nM. No background was subtracted.